How the values were obtained:
KB [1] = assay: Growth inhibition of human KB cells assessed as cell growth at 1 ug/ml after 16 hrs by EORTC method relative to control
KB [2] = assay: Growth inhibition of human KB cells assessed as cell growth at 10 ug/ml after 16 hrs by EORTC method relative to control
KB [3] = assay: Growth inhibition of human KB cells assessed as cell growth at 100 ug/ml after 16 hrs by EORTC method relative to control
KB [4] = assay: Growth inhibition of human KB cells assessed as cell growth at 1 ug/ml after 72 hrs by EORTC method relative to control
KB [5] = assay: Growth inhibition of human KB cells assessed as cell growth at 10 ug/ml after 72 hrs by EORTC method relative to control
KB [6] = assay: Growth inhibition of human KB cells assessed as cell growth at 100 ug/ml after 72 hrs by EORTC method relative to control
[7] = Stability of the compound at pH 4.18; conditions: buffer

## Cc1[nH]c(=O)[nH]c(=O)c1CN(CCCl)CCCl.Cl
KB [1]
  growth inhibition (GI): 67%
KB [2]
  growth inhibition (GI): 63%
KB [3]
  growth inhibition (GI): -77%
KB [4]
  growth inhibition (GI): 32%
KB [5]
  growth inhibition (GI): 9%
KB [6]
  growth inhibition (GI): 91%
[7]
  Stability: Unstable

Reference: ChEMBL document CHEMBL3272034
